# miR-21 reporter: raises the signal of a miR-21 reporter; 340,000 tested, under 10 active; HeLa miR-21 FLuc reporter, luciferase, 48 h; Potency, µM (highest dose often 38.3 µM); active = well fitted rising curve with a large enough effect; inconclusive = small, poorly fitted or top-dose-only effect; inactive = no such curve, though single readings can be large or run the other way;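 also: miR-21 action dims this reporter so a rising signal means less miR-21 action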
#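 HeLa cells endogenously expressing miR-21, stably carrying CMV-driven firefly luciferase with a downstream miR-21 binding site, 2000 cells/well. Titrations up to approximately 40 uM, 48 hours; luciferase luminescence read.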
# uPA surface inh: inhibitors of cell surface uPA generation. cell surface uPA generation assay, qHTS. 330,000 tested, 0.31% active. Potency, µM (top dose mostly 38.3 µM), usual class: inhibitors; active means well fitted inhibition curve with a large enough effect; inconclusive means small, poorly fitted or top-dose-only effect; inactive means no such curve, though single readings can be large or run the other way; tested in mouse RAW 264.7 cells; further: nearly all actives have a fitted effect of over 55% in size
# TDP1 block: blocks human tyrosyl-DNA phosphodiesterase 1 | Q9NUW8 | recombinant TDP1, AlphaScreen DNA substrate cleavage | Potency, µM (doses to about 130 µM), most hits filed as inhibitors | 350,000 tested, 0.28% active | AID 485290; further: nearly all actives have a fitted effect of over 40% in size
#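 Enzyme-compound mixtures sat 15 min at room temperature, followed by a 5 min reaction with 15 nM final substrate and 10 min with AlphaScreen beads. Recombinant human Tdp1 was used at 1 nM final.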
# DT40 TDP1 no CPT: qHTS for Inhibitors of human tyrosyl-DNA phosphodiesterase 1 (TDP1): qHTS in cells in absence of CPT | DT40 Tdp1-/- hTDP1 cells, no CPT, ATP luminescence, 48 h | Potency, µM (series often up to 46.2 µM), usual class: inhibitors | 420,000 tested, 15% active | AID 686978, 2013; further: nearly all actives have a fitted effect of over 55% in size
#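 Seeded 400 DT40-hTDP1 cells/well (vehicle DMSO, no 20 nM CPT); pinned compounds; ≥48 hr at 37 °C; CellTiter-Glo luminescence as viability measure.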
# TDP1 cell CPT: DT40-hTDP1 cell growth loss with CPT; AID 686979; chicken DT40 Tdp1-/-;hTDP1 cells + 20 nM CPT, ATP luminescence, 48 h; 420,000 tested, 12% active; Potency, µM (titrated, usually from 46.2 µM), most hits filed as inhibitors; further: nearly all actives have a fitted effect of over 55% in size
#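 Chicken DT40 Tdp1-/- cells stably complemented with human TDP1 were seeded at 400 cells/well in medium containing 20 nM camptothecin, exposed to pin-transferred compounds, and grown at 37 °C for at least 48 hr. Viability was read as ATP luminescence.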
# Hits are given with their value; n = inactive; u = inconclusive; x = no result given; [ ] = another dose, or the depositor's remark. This is a sample that favours compounds with a hit; in the whole collection about 16% have one here. Unless noted, the call rests on the fitted dose curve; in most records, active means well fitted curve in the direction sought with a large enough effect; inconclusive means small, poorly fitted or top-dose-only effect, or another doubt; inactive means no such curve, though single readings can be large; an effect the other way counts as inactive or inconclusive.
SMILES,miR-21 reporter,uPA surface inh,TDP1 block,DT40 TDP1 no CPT,TDP1 cell CPT
Cc1ccc(NC(=O)CSc2nccn(-c3ccc4c(c3)OCCO4)c2=O)cc1,x,n,n,18µM,23µM
CCOc1ccc(NC(=O)CSc2nccn(-c3ccc4c(c3)OCCO4)c2=O)cc1,x,n,n,15µM,n
CCc1ccc(NC(=O)CSc2nccn(-c3ccc4c(c3)OCCO4)c2=O)cc1,x,n,x,u,18µM
CCC1CN(Cc2c(C)nc3sccn23)Cc2cc(OC)ccc2O1 (stereo not drawn),x,x,x,n,n[9.04 µM]
Cc1ccc2cc(CN(C(=O)c3ccncc3)C(C)C)c(=O)[nH]c2c1,n,n,n,n,n
CCn1nc(C)c(CNC(=O)c2ccc(OC3CCN(Cc4ccccn4)CC3)cc2)c1C,n,u,n,2.9µM,6.5µM
CCn1cc(CNC(=O)c2ccc(OC3CCN(Cc4ccccn4)CC3)cc2)cn1,n,n,n,u,u
O=C(NCCc1cccc(Cl)c1)c1ccc(OC2CCN(Cc3ccccn3)CC2)cc1,n,u,x,16µM,29µM
O=C(C1=C[C@@H](c2ccc(Br)cc2)C[C@@H](OCc2ccc(CO)cc2)O1)N1CCOCC1,n,n,n,u,u
N#Cc1ccccc1OCC(=O)NNC(=O)CCC1CCCC1,x,n,n,n,n
N#Cc1ccccc1COc1cccc2c1CCCC2O (stereo not drawn),n,n,x,15µM,u
Cc1ccc2nc(N3C(=O)CNC3=S)sc2c1,n,n,n,u,15µM
COC(=O)/C=C1\C(=O)N(c2nc3ccc(OC)cc3s2)C(=S)N1c1ccc(F)cc1,n,x,n,x,x
COc1ccc2nc(N3C(=O)CNC3=S)sc2c1,n,n,n,7.3µM,7.3µM
CCc1nc2ccc(C(=O)NCc3cc(OC)ccc3OC)cc2nc1CC,n,x,n,u,16µM
COc1ccc(OC)c(CNC(=O)c2ccc(Sc3ccc(C)cc3)c(N)c2)c1,n,x,n,21µM,23µM
CCc1nc2ccc(C(=O)NCCc3ccc(OC)cc3OC)cc2nc1CC,n,x,n,18µM,26µM
CCOc1ccc(CNC(=O)c2ccc(Sc3ccc(C)cc3)c(N)c2)cc1OC,n,x,n,u,u
CCOc1ccc(CCNC(=O)c2ccc3nc(CC)c(CC)nc3c2)cc1,n,n,n,u,u
CC(=O)Nc1ccc(S(=O)(=O)N2CCC(NC(C)=O)(c3cccc(F)c3)CC2)cc1,n,n,n,n,n
CC1=CC2=NC(=O)CC(C)(C(=O)N(CC(=O)NC3CCCC3)c3cc(C)cc(C)c3)N2C=C1 (stereo not drawn),n,n,n,21µM,13µM
CC1=CC2=NC(=O)CC(C)(C(=O)N(CC(=O)NC(C)(C)C)C3CCCC3)N2C=C1 (stereo not drawn),n,n,n,n,n
O=C(CCC(=O)N1CCN(c2ccccn2)CC1)Nc1nnc(C2CCCCC2)s1,n,n,n,n,n
CCOC(=O)CN(c1ccccn1)S(=O)(=O)c1ccccc1,n,n,n,n,n
CCOC(=O)CN(c1sc(C)c(C)c1C(=O)OCC)S(=O)(=O)c1ccc(C)cc1,x,x,x,15µM,u
SMILES,miR-21 reporter,uPA surface inh,TDP1 block,DT40 TDP1 no CPT,TDP1 cell CPT
CCOCc1c(C(=O)N2CCN(CCOc3ccc(Cl)cc3)CC2)oc2ccccc12,x,n,n,15µM,u
COc1ccc(C(=O)C2CCCN(C(=O)COc3ccc(C(C)=O)cc3)C2)cc1F (stereo not drawn),n,n,n,u,u
Cc1ccc(NC(=O)N(Cc2cccs2)Cc2cc3cc4c(cc3[nH]c2=O)OCO4)cc1,n,x,n,x,x
COc1ccc(NC(=O)N(Cc2cccs2)Cc2cc3cc4c(cc3[nH]c2=O)OCO4)cc1,n,x,n,x,x
O=C(Nc1ccc(F)cc1)N(Cc1cccs1)Cc1cc2cc3c(cc2[nH]c1=O)OCO3,n,n,n,16µM,u
O=C(Nc1ccc(F)cc1)N(Cc1ccco1)Cc1cc2cc3c(cc2[nH]c1=O)OCO3,n,n,n,23µM,u
O=C(COC(=O)c1cccs1)NC1CCCCC1,n,n,n,n,n
O=C(CSc1cccc[n+]1[O-])c1ccccc1Br,n,n,n,5.2µM,3.7µM
O=C(CSc1cccc[n+]1[O-])c1ccc(Cl)s1,n,n,n,1.3µM,0.73µM
Cc1cc(C(=O)CSc2cccc[n+]2[O-])c(C)n1-c1ccc(Br)cc1,n,x,n,x,x
CCCCNC(=O)CCn1c(=O)c2ccccc2n(Cc2ccccc2C)c1=O,n,n,n,n,n
O=C(NCC(c1ccco1)N1CCc2ccccc21)c1c(F)cccc1F (stereo not drawn),x,n,x,n,u
COc1ccc(C(=O)NCC(c2cccnc2)N2CCc3ccccc3C2)cc1 (stereo not drawn),n,x,n,21µM,12µM
COc1ccc(C(=O)NCC(c2cccnc2)N2CCc3ccccc3C2)cc1OC (stereo not drawn),n,x,n,u,16µM
COc1ccc(C(=O)NCC(c2cccnc2)N2CCc3ccccc32)cc1OC (stereo not drawn),n,x,n,21µM,15µM
O=C(NCC(c1cccnc1)N1CCc2ccccc21)c1ccc(F)cc1 (stereo not drawn),n,x,n,18µM,23µM
COc1ccc(C(=O)NCc2cccnc2)cc1OC,n,n,n,n,n
COc1ccc(C(=O)NCC(c2cccnc2)N2CCN(c3ccccc3)CC2)cc1OC (stereo not drawn),n,n,n,n,u
COc1ccc(N2CCN(C(CNC(=O)c3cccc(Cl)c3)c3cccnc3)CC2)cc1 (stereo not drawn),n,n,n,u,u
CC12CCC(=O)N1C(C(=O)Nc1nc(-c3ccccc3)cs1)CS2 (stereo not drawn),x,n,x,n,n
CCOc1ncccc1C(=O)OCC(=O)NC(=O)NC(C)C,n,n,n,n,n
O=C(NCCn1c(C(F)(F)F)nc2cc(C(F)(F)F)ccc21)[C@H]1CCCN1c1nc(CN2CCCCC2)cs1,n,n,x,u,u
O=C(COC(=O)c1ccc(F)c(S(=O)(=O)N2CCOCC2)c1)NCc1ccccc1,x,n,n,n,n
O=C(OCC(=O)N(CCc1ccccc1)Cc1ccccc1)c1ccc(F)c(S(=O)(=O)N2CCOCC2)c1,x,n,x,2.9µM,u
O=C(OCC(=O)N(CCc1ccccc1)Cc1ccccc1)c1cccc(S(=O)(=O)N2CCOCC2)c1,x,n,x,7.3µM,u
O=C(CNC(=O)c1ccccc1)OCc1cc(=O)n2nc(C3CCCCC3)sc2n1,n,x,n,n,u
COc1ccc(C2=NN(C(=O)CSc3nc4ccccc4s3)C(c3ccc(OC)cc3)C2)cc1 (stereo not drawn),n,n,n,12µM,13µM

# Source: PubChem BioAssay
